Article PMC3794980, “Identification of Conserved and HLA Promiscuous DENV3 T-Cell Epitopes” (PLoS Neglected Tropical Diseases, 2013)
Read-outs that look alike come from different tables or passages of the source.

Tests used:
Assay in all cases: biochemical
Type in all cases: binding
DRB1*0301 = DRB1*0301 (Homo sapiens, UniProt P01903+P01911, A100K/A102G/A103R/A169T/F55Y/I96L/K41T/L162R/M171V/P40S/Q125H/Q178H/Q39Y/R42S/S66N/T106N/T262R/W38E/Y61H)
DRB1*0405 = DRB1*0405 (Homo sapiens, UniProt P01903+P01911, A100R/A169T/D86S/F76Y/I96L/K127E/L162R/M171V/N62H/P40V/Q125Y/R42H/S133A/S149N/S66Y/V115G/V209L/W38E)
DRB1*0901 = DRB1*0901 (Homo sapiens, UniProt P01903+P01911, A100R/A103E/D57H/D86V/F55Y/F60I/F76Y/I96F/K127E/L162R/M171V/P40D/Q125H/Q99R/R33Q/R42F/S133A/S66N/T210M/V115G/W38K/Y107V/Y59G/Y89S)
DRB1*1501 = DRB1*1501 (Homo sapiens, UniProt P01903+P01911)
DRB1*1302 = DRB1*1302 (Homo sapiens, UniProt P01903+P01911, A100E/A169T/K41T/L162R/M171V/P40S/Q125H/Q178H/Q39Y/Q99D/R42S/S66N/T262R/V115G/W38E/Y61H)
DRB1*0404 = DRB1*0404 (Homo sapiens, UniProt P01903+P01911, A100R/A169T/F76Y/I96L/K127E/L162R/M171V/N62H/P40V/Q125Y/R42H/S133A/S149N/S66Y/V209L/W38E)
DRB1*0101 = DRB1*0101 (Homo sapiens, UniProt P01903+P01911, A100R/D57E/F55L/F60I/F76Y/I96L/L162R/M171V/P40L/Q125E/R42F/V115G/Y59C)
DRB1*1101 = DRB1*1101 (Homo sapiens, UniProt P01903+P01911, A100R/A169T/A87E/I96F/K41T/L162R/M171V/P40S/Q125H/Q178H/Q39Y/Q99D/R42S/S66Y/T262R/V115G/W38E)
DRB1*0701 = DRB1*0701 (Homo sapiens, UniProt P01903+P01911, A100R/A102G/A103Q/D57E/D86V/E43K/F76Y/K127E/L162R/M171V/P40G/Q125H/Q99D/R33Q/R42Y/R54Q/S133A/S66F/T210M/V115G/Y107V/Y59L/Y89S)
DRB1*0802 = DRB1*0802 (Homo sapiens, UniProt P01903+P01911, A100R/A103L/A169T/F76Y/H45Y/I96F/K41T/L162R/M171V/P40S/Q125H/Q178H/Q39Y/Q99D/R218S/R42G/S66Y/V115G/W38E)
DRB1*0401 = DRB1*0401 (Homo sapiens, UniProt P01903+P01911, A100K/A169T/F76Y/I96L/K127E/L162R/M171V/N62H/P40V/Q125Y/R42H/S133A/S149N/S66Y/V115G/V209L/W38E)
[1] = competitive inhibition of radiolabeled standard peptide, '-' distinct from ND, read-out: Binding Affinity (nM) DRB1*0901
[2] = competitive inhibition of radiolabeled standard peptide, '-' distinct from ND, read-out: Binding Affinity (nM) DRB1*1302
[3] = read-out: Binding Affinity (nM) DRB1*1101

Structure (SMILES) | IC50 (DRB1*0301) [nM] | IC50 (DRB1*0404) [nM] | IC50 (DRB1*0101) [µM] | IC50 (DRB1*1101; [3]) [nM] | IC50 (DRB1*0701) [nM] | IC50 (DRB1*0802) [nM] | IC50 (DRB1*0405) [nM] | IC50 (DRB1*0901) [nM] | IC50 (DRB1*1501) [nM] | IC50 (DRB1*1302) [nM] | IC50 (DRB1*1101) [nM] | IC50 (DRB1*0401) [µM] | further results
CC[C@H](C)[C@H](NC(=O)[C@@H](NC(=O)CNC(=O)[C@H](Cc1c[nH]cn1)NC(=O)[C@H](CCC(N)=O)NC(=O)[C@@H](NC(=O)[C@H](CCC(=O)O)NC(=O)[C@H](CO)NC(=O)[C@@H](NC(=O)[C@H](CCC(=O)O)NC(=O)[C@H](CCCCN)NC(=O)[C@H](CCCCN)NC(=O)[C@@H](N)CC(C)C)C(C)C)[C@@H](C)O)[C@@H](C)O)C(=O)N[C@@H](CC(C)C)C(=O)N[C@H](C(=O)O)C(C)C [Envelope 306-320] | 5580 | 16400 | 6.55 | > 20000 | 1440 | 1860 | – | – | – | – | – | – | IC50 (DRB1*0405; read-out: Binding Affinity (nM) DRB1*0405): > 20000 nM; IC50 (DRB1*0901; [1]): 13300 nM; IC50 (DRB1*1501; read-out: Binding Affinity (nM) DRB1*1501): > 20000 nM; IC50 (DRB1*1302; [2]): 6840 nM
CC[C@H](C)[C@H](N)C(=O)NCC(=O)N[C@@H](CCCCN)C(=O)N[C@@H](CCSC)C(=O)N[C@@H](Cc1ccccc1)C(=O)N[C@@H](CCC(=O)O)C(=O)N[C@@H](C)C(=O)N[C@H](C(=O)N[C@@H](C)C(=O)N[C@@H](CCCNC(=N)N)C(=O)NCC(=O)N[C@@H](C)C(=O)N[C@@H](CCCNC(=N)N)C(=O)N[C@@H](CCCNC(=N)N)C(=O)N[C@@H](CCSC)C(=O)O)[C@@H](C)O [Envelope 396-410] | 424 | – | 0.0049 | – | – | 106 | 6950 | 40 | 258 | 1600 | 39 | – | IC50 (DRB1*0404; read-out: Binding Affinity (nM) DRB1*0404): > 20000 nM
CC(C)C[C@H](NC(=O)[C@H](CCCNC(=N)N)NC(=O)[C@H](CCCCN)NC(=O)[C@@H]1CCCN1C(=O)[C@H](CO)NC(=O)[C@H](CC(=O)O)NC(=O)[C@H](C)NC(=O)[C@H](CCC(N)=O)NC(=O)[C@H](Cc1ccccc1)NC(=O)[C@H](CCCCN)NC(=O)[C@H](Cc1ccc(O)cc1)NC(=O)[C@H](CCC(N)=O)NC(=O)[C@H](CCC(=O)O)NC(=O)[C@@H](N)[C@@H](C)O)C(=O)N[C@@H](C)C(=O)O [NS1 29-43] | – | – | – | – | 1710 | 13600 | 1510 | 1010 | 8360 | – | – | 0.048 | –
CC[C@H](C)[C@H](NC(=O)[C@H](CCSC)NC(=O)[C@H](CC(=O)O)NC(=O)[C@H](CO)NC(=O)[C@H](CCC(=O)O)NC(=O)[C@H](CC(C)C)NC(=O)[C@@H](NC(=O)CNC(=O)[C@H](CC(N)=O)NC(=O)[C@@H](N)CO)C(C)C)C(=O)N[C@H](C(=O)N1CCC[C@H]1C(=O)N[C@@H](CCCCN)C(=O)N[C@@H](CO)C(=O)N[C@@H](CC(C)C)C(=O)O)[C@@H](C)CC [NS1 233-247] | 73 | 5940 | 4.3 | > 20000 | – | 2440 | 3620 | – | 5090 | – | – | – | IC50 (DRB1*0901; [1]): 17300 nM; IC50 (DRB1*1302; [2]): 1660 nM; IC50 (DRB1*0701; read-out: Binding Affinity (nM) DRB1*0701): > 20000 nM
CC(C)C[C@H](NC(=O)[C@H](CCCCN)NC(=O)CNC(=O)[C@H](CC(C)C)NC(=O)[C@@H](N)Cc1c[nH]cn1)C(=O)N[C@@H](CCC(=O)O)C(=O)N[C@@H](CC(C)C)C(=O)N[C@@H](CC(=O)O)C(=O)N[C@@H](Cc1ccccc1)C(=O)N[C@@H](CC(N)=O)C(=O)N[C@@H](Cc1ccc(O)cc1)C(=O)N[C@@H](CS)C(=O)N[C@@H](CCC(=O)O)C(=O)NCC(=O)N[C@H](C(=O)O)[C@@H](C)O [NS1 269-283] | 18 | 2520 | 6.34 | > 20000 | 11000 | 1120 | – | 16700 | 4160 | 1910 | – | – | –
CC(C)C[C@H](NC(=O)[C@H](CCCCN)NC(=O)CNC(=O)[C@H](CO)NC(=O)[C@@H](NC(=O)[C@@H](NC(=O)[C@@H](NC(=O)[C@@H](NC(=O)[C@H](CCCNC(=N)N)NC(=O)[C@H](CC(C)C)NC(=O)[C@H](CO)NC(=O)[C@@H]1CCCN1C(=O)CNC(=O)[C@H](CCCNC(=N)N)NC(=O)[C@@H](N)[C@@H](C)O)[C@@H](C)O)[C@@H](C)O)[C@@H](C)O)C(C)C)C(=O)O [NS1 293-307] | – | 3310 | 2.6 | > 20000 | 83 | 12300 | 3010 | 17100 | 11300 | 14500 | – | – | –
CC(C)C[C@H](NC(=O)[C@H](CCCNC(=N)N)NC(=O)[C@H](CCCCN)NC(=O)CNC(=O)[C@H](CC(N)=O)NC(=O)[C@H](Cc1ccc(O)cc1)NC(=O)[C@@H](NC(=O)[C@H](CC(C)C)NC(=O)[C@@H](NC(=O)[C@H](C)NC(=O)CNC(=O)[C@H](CCCNC(=N)N)NC(=O)[C@@H](N)[C@@H](C)O)C(C)C)[C@@H](C)O)C(=O)N[C@@H](CCC(=O)O)C(=O)N1CCC[C@H]1C(=O)O [NS3 53-67] | – | 7190 | – | – | – | 14700 | – | – | – | – | – | 5.91 | –
CC[C@H](C)[C@H](N)C(=O)N[C@@H](CO)C(=O)N[C@@H](Cc1ccc(O)cc1)C(=O)NCC(=O)NCC(=O)NCC(=O)N[C@@H](Cc1c[nH]c2ccccc12)C(=O)N[C@@H](CCCNC(=N)N)C(=O)N[C@@H](CC(C)C)C(=O)N[C@@H](CO)C(=O)N[C@@H](C)C(=O)N[C@@H](CCC(N)=O)C(=O)N[C@@H](Cc1c[nH]c2ccccc12)C(=O)N[C@@H](CCC(N)=O)C(=O)N[C@@H](CCCCN)C(=O)O [NS3 77-91] | – | 2210 | 0.139 | – | – | 3600 | 1430 | – | – | 6610 | 286 | – | IC50 (DRB1*0301; read-out: Binding Affinity (nM) DRB1*0301): > 20000 nM
CC[C@H](C)[C@H](NC(=O)[C@H](Cc1ccc(O)cc1)NC(=O)CNC(=O)[C@H](CCCNC(=N)N)NC(=O)[C@H](C)N)C(=O)N[C@@H](CO)C(=O)N[C@H](C(=O)N[C@@H](CCCNC(=N)N)C(=O)N[C@H](C(=O)NCC(=O)N[C@@H](CCSC)C(=O)NCC(=O)N[C@@H](CCC(=O)O)C(=O)N[C@@H](C)C(=O)N[C@@H](C)C(=O)O)C(C)C)[C@@H](C)O [NS3 297-311] | 7290 | – | – | – | 77 | – | 90 | – | – | – | 35 | 0.016 | IC50 (DRB1*0901; competitive inhibition of radiolabeled standard peptide, DRB1*0901, read-out: Binding Affinity (nM) DRB1*0901): 1910 nM; IC50 (DRB1*1302; competitive inhibition of radiolabeled standard peptide, DRB1*1302, read-out: Binding Affinity (nM) DRB1*1302): 2300 nM; IC50 (DRB1*0802; read-out: Binding Affinity (nM) DRB1*0802): > 20000 nM
CC[C@H](C)[C@H](N)C(=O)N[C@@H](Cc1ccccc1)C(=O)N[C@@H](CCSC)C(=O)N[C@H](C(=O)N[C@@H](C)C(=O)N[C@H](C(=O)N1CCC[C@H]1C(=O)N1CCC[C@H]1C(=O)NCC(=O)N[C@H](C(=O)N[C@@H](C)C(=O)N[C@@H](CC(=O)O)C(=O)N[C@@H](C)C(=O)N[C@@H](Cc1ccccc1)C(=O)N1CCC[C@H]1C(=O)O)[C@@H](C)O)[C@@H](C)O)[C@@H](C)O [NS3 313-327] | 14700 | – | – | – | – | 40 | 2250 | 2010 | – | 13500 | 1050 | 0.055 | –
CC[C@H](C)[C@H](NC(=O)[C@@H](NC(=O)[C@H](CCCNC(=N)N)NC(=O)[C@H](CCC(=O)O)NC(=O)[C@@H]1CCCN1C(=O)CNC(=O)[C@H](CC(=O)O)NC(=O)[C@@H](NC(=O)[C@H](CC(C)C)NC(=O)[C@@H](NC(=O)[C@@H](NC(=O)[C@@H]1CCCN1C(=O)[C@H](CCCCN)NC(=O)[C@H](CC(C)C)NC(=O)[C@@H](N)CS)C(C)C)[C@@H](C)CC)[C@@H](C)O)C(C)C)C(=O)O [NS3 429-443] | – | – | – | – | 3410 | – | 1770 | 7160 | 5910 | – | 4930 | 7.32 | –
